## Measured affinities in a library of Ab-14 heavy chain variants

Source: Li et al. 2023 (doi:10.1038/s41467-023-39022-2), MIT Lincoln Laboratory and A-Alpha Bio; data file from the FLAb repository.

All variants were tested on one target, the spike HR2 peptide PDVDLGDISGINAS (SARS-CoV-2).

Parent scFv Ab-14: VH joined to VL by three GGGGS repeats. Changes lie in the heavy chain CDRs alone.
VH: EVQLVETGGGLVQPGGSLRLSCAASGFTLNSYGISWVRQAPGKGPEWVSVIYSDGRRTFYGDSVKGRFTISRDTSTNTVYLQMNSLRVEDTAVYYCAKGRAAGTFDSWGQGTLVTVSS
VL: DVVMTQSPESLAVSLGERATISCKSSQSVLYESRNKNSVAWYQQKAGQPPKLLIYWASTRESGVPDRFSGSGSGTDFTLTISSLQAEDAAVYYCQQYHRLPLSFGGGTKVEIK

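Phage display of a naive human antibody library on the peptide gave the parent. The variants were designed computationally from a first round of random CDR variants and then made and measured. Their group label is 14H_GP_Gen (GP: Gaussian process model; Gen: genetic algorithm; a sequence that several methods proposed may carry one label only). In AlphaSeq, yeast of one mating type display the scFv and yeast of the other type display the target. The frequency of each diploid, read from paired DNA barcodes, reflects how well the two displayed proteins bind. Each replicate has its own calibration line, from reference interactions of the BCL2 family. Each pool was mated in six replicate cultures.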

Substitutions are numbered in sequence along the VH above, starting at 1 (not Kabat). Scale: log10 of Kd in nM, estimated from mating counts; low values are strong binders. A mean of the replicates is given; it leaves out those without a signal. Where no diploid with the target was found in that replicate, the entry reads "ND": below detection, most likely a poor binder, though not proof of it. Of ten entries with the parent sequence, four were seen in most replicates (averages 0.34 to 2.37), three in one and three in none, so single entries are noisy.

changes,"replicates, log10 nM","log10 Kd (nM), mean",control signals
T28N G61A S63D R100K,0.71 1.31 0.92 0.46 1.13 1.23,0.96,0 of 18
G26W T28D G61I R100N,ND 1.49 ND 1.60 2.33 0.63,1.51,0 of 18
T28D S63N R100N,0.45 0.31 0.24 0.14 0.37 0.32,0.31,0 of 18
T28E G61I R100H S107K,1.41 0.71 1.09 2.19 0.52 0.75,1.11,1 of 18 (1.53)
G26K T28D G61I R100N,ND 2.44 1.06 1.56 3.26 ND,2.08,1 of 18 (2.45)
T28D G61Q R100Q S107D,0.88 1.11 0.92 0.42 0.55 0.85,0.79,2 of 18 (1.78)
T28D G61D A101Q,-0.05 -0.15 -0.23 -0.38 0.17 0.43,-0.03,0 of 18
T28D R56M G61K A101T,0.12 -0.11 -0.35 -0.07 -0.32 0.48,-0.04,0 of 18
T28S S63N A101E,0.48 0.18 0.23 -0.07 0.09 0.32,0.21,1 of 18 (2.54)
G26K T28S G61A R100K A101T,1.43 1.20 1.00 0.80 1.84 ND,1.25,0 of 18
T28D G61A S63D R100E,0.42 0.47 -0.21 0.15 0.19 0.79,0.30,0 of 18
G26K T28D G61Q R100E,ND 0.78 ND 1.60 ND ND,1.19,0 of 18
T28E S31E R100S S107K,0.68 0.21 0.21 0.62 0.52 0.36,0.43,0 of 18
T28D R56K A101Y,0.62 0.24 0.05 1.02 0.12 -0.33,0.29,0 of 18
T28E N30K S53A,-1.46 -1.02 -0.96 -0.95 -0.58 -1.22,-1.03,0 of 18
T28D F59M A101Q,0.20 0.20 0.00 -0.16 0.25 0.78,0.21,1 of 18 (2.26)
T28D S63Q A101T S107A,0.97 0.69 1.02 -0.15 0.05 0.26,0.47,0 of 18
T28N S63R R100E,1.17 1.07 0.86 1.19 1.51 1.14,1.16,0 of 18
T28D G61A S63R A101N,0.45 1.19 0.65 ND 0.00 1.09,0.68,0 of 18
G61A S63D R100Q S107K,1.08 1.20 0.81 1.17 0.99 1.41,1.11,2 of 18 (2.27)
T28D S31A S63Q A101T,0.18 0.13 0.15 -0.06 0.00 0.10,0.08,2 of 18 (3.35)
T28S S31A S63Q A101T,1.31 0.72 0.81 0.32 1.29 0.92,0.89,0 of 18
T28D T58S A101I,0.04 0.74 0.16 0.37 -0.20 0.50,0.27,0 of 18
T28E R56I A101T,-0.28 -0.08 -0.09 -0.50 -0.07 0.01,-0.17,0 of 18
T28E S31E A101H S107T,1.26 ND 0.60 0.23 -0.14 0.90,0.57,0 of 18
T28E S31E G61A A101M,-0.52 0.58 0.47 0.07 0.55 -0.25,0.15,0 of 18
T28E R100K A101T S107D,0.96 0.62 0.40 0.93 1.06 0.75,0.79,0 of 18
T28D A101E S107V,0.13 -0.03 0.12 -0.36 0.40 0.57,0.14,0 of 18
T28N G61Q R100N,1.56 0.26 0.77 0.57 0.62 1.08,0.81,0 of 18
R56K S63R A101T S107T,ND 1.89 1.07 1.35 1.22 1.83,1.47,0 of 18
T28P S31E R100Q,0.44 1.07 0.42 0.84 1.08 0.97,0.80,0 of 18
G26P T28D G61A A101E,1.47 ND 0.16 2.00 0.47 ND,1.03,0 of 18
G26K T28E S53A R100K,ND ND ND ND ND ND,ND,0 of 18
T28D G61I R100W A101T,0.32 0.64 0.27 0.17 0.50 0.35,0.38,0 of 18
T28D R56K S63R A101Q,ND 1.71 1.51 1.79 0.55 1.56,1.42,0 of 18
G26M T28E S53A,0.97 0.82 2.81 1.57 1.90 1.99,1.68,1 of 18 (1.42)

Picked from the list: the 4 lowest averages where every replicate gave a value.

changes,"replicates, log10 nM","log10 Kd (nM), mean",control signals
T28E N30K S53A,-1.46 -1.02 -0.96 -0.95 -0.58 -1.22,-1.03,0 of 18
T28E R56I A101T,-0.28 -0.08 -0.09 -0.50 -0.07 0.01,-0.17,0 of 18
T28D R56M G61K A101T,0.12 -0.11 -0.35 -0.07 -0.32 0.48,-0.04,0 of 18
T28D G61D A101Q,-0.05 -0.15 -0.23 -0.38 0.17 0.43,-0.03,0 of 18

A sequence measured in both rounds can read differently, since the two assays cover different ranges. The authors' rule: three or more of the six replicates give a measured affinity, fewer mean a poor binder. As a blank, each scFv also met three strains without target: over all heavy chain designs, 1% of these pairings were detected, typically at 2.08 and seldom below 0.84. Also given: how often the same scFv was detected with the empty control strains, with their mean in brackets.